Test: Inhibition of Escherichia coli MurD

IC50 [µM]	Compound
122	N#Cc1ccc(COc2ccc3ccc(S(=O)(=O)N[C@H](CCC(=O)O)C(=O)O)cc3c2)cc1
105	N#Cc1ccc(COc2ccc3cc(S(=O)(=O)N[C@H](CCC(=O)O)C(=O)O)ccc3c2)cc1

Source: ChEMBL document CHEMBL1140221, “Novel naphthalene-N-sulfonyl-D-glutamic acid derivatives as inhibitors of MurD, a key peptidoglycan biosynthesis enzyme” (J Med Chem, 2008)
